Target: Sodium-dependent noradrenaline transporter (Homo sapiens, UniProt P23975)

By UniProt entry, the sequences of proteins in these tests, tags left out.
UniProt P23975, whole entry: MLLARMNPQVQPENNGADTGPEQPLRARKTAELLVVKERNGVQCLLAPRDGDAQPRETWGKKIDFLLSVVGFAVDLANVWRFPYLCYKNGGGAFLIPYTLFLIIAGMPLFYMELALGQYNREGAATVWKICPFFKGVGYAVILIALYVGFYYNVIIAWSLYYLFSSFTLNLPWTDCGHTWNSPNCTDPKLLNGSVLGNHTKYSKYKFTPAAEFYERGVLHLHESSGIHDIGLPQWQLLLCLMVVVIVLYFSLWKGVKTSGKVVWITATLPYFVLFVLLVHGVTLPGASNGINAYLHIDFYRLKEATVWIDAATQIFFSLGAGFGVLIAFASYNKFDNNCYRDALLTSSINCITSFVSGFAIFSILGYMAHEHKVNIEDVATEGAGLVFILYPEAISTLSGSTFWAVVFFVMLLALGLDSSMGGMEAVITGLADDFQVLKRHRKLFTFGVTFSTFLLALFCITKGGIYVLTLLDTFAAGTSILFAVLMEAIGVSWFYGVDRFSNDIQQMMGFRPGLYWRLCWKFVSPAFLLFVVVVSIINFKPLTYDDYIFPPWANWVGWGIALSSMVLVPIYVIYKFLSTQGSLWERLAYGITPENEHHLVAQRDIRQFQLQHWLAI

## CN(C)C[C@@H]1C2CCC(CC2)[C@@H]1c1cccc(Cl)c1
  IC50: 22 nM

Reference: ChEMBL document CHEMBL1140446, “Designed multiple ligands. An emerging drug discovery paradigm” (J Med Chem, 2005)
